{"source": "patent US6652633B2", "about": "“Fire retardant” (Arch Wood Protection, Inc., priority 2001, dated 2003)", "assay": "potentiometric titration against 0.1 N NaOH with mannitol complexation (equivalence points)", "conditions": "potentiometric titration of GUP/boric acid solutions, samples complexed with mannitol"}
{"substance": "phosphoric acid-dicyandiamide salt", "values": [{"measurement": "pKa (equivalence point)", "value": "approximately 3.20"}, {"measurement": "pKa (equivalence point)", "setting": "listed as dicyandiamide/phosphoric acid salt", "value": "about 3.2"}, {"measurement": "pKa (equivalence point)", "setting": "listed as salt of dicyandiamide and phosphoric acid", "value": 3.2}]}
